Test results reported in patent publication US20220252575A1, “SCREENING METHOD AND TOXICITY EVALUATION METHOD” (Public University Corporation Yokohama City University, priority 2019, published 2022).

Tests used:
[1] = tested on: iPS cell-derived non-hematopoietic human vascular endothelial cells; assay: Formation of complement membrane attack complex (MAC) in iPS cell-derived vascular endothelial cells with human serum and liver organoid culture supernatant; format: cell-based; conditions: Eculizumab 2.028-676 nano mol/L added simultaneously with serum; 3% human serum, 10% organoid culture supernatant, LPS; 24 hr; MAC immunostaining relative to DAPI (FIG. 2)
Description: (§1) iPS cells (1383D2; Center for iPS Cell Research and Application, Kyoto University) (4000 cells) were seeded on a 96-well plate (corning), and iPS-derived human non-hemogenic endothelial cells were produced on the plate according to the method in the above-mentioned 1-1. The medium for the cells containing a CD59 antibody (1 μg/ml) was added at 100 μl/96 well, and the cells were incubated at 37° C. for 1 hr. […] After washing 3 times with PBS(—), and quantitative analysis was performed by a cell analyzer 6500HS (GE Healthcare). The obtained numerical value was calculated as a value relative to the value of 4′,6-diamidino-2-phenylindole (DAPI). […]
The action of complement factor V C5 antibody Eculizumab (AB00296, Absolute Antibody Ltd) on the formation of complement membrane attack complex in iPS cell-derived non-hematopoietic human vascular endothelial cells by using iPS cell-derived liver organoid culture supernatant and human serum was tested. The membrane complex was formed and detected by the method described in the above-mentioned (1-5) except that Eculizumab was added at a concentration of 2.028-676 nano mol/L simultaneously with the serum.

[2] = tested on: plural cells other than vascular endothelial cell from pluripotent stem cell; assay: MAC deposition experiment in plural cells other than vascular endothelial cell induced from pluripotent stem cell; format: cell-based, human; conditions: complement having activity, regardless of cell type
Description: The present inventors have further studied based on these findings and completed the present invention.
as §1, with “hr. Then, an equal amount of the same medium (containing 6% (v/v) human serum [BIOPREDIC Inc. SER018A050F018], 20% (v/v) culture supernatant collected in (1-4), LPS (Lipopolysaccharide) 2 μg/ml) was added to the cell culture medium (therefore, the concentration of human serum in the medium after addition was 3% (v/v), and the concentration of the culture supernatant collected in (1-4) was 10% (v/v)), and the cells were incubated at 37° C. for 24 hr.” for “hr.”

B1: Eculizumab (antibody, chains of the INN, looked up)
heavy: QVQLVQSGAEVKKPGASVKVSCKASGYIFSNYWIQWVRQAPGQGLEWMGEILPGSGSTEYTENFKDRVTMTRDTSTSTVYMELSSLRSEDTAVYYCARYFFGSSPNWYFDVWGQGTLVTVSSASTKGPSVFPLAPCSRSTSESTAALGCLVKDYFPEPVTVSWNSGALTSGVHTFPAVLQSSGLYSLSSVVTVPSSNFGTQTYTCNVDHKPSNTKVDKTVERKCCVECPPCPAPPVAGPSVFLFPPKPKDTLMISRTPEVTCVVVDVSQEDPEVQFNWYVDGVEVHNAKTKPREEQFNSTYRVVSVLTVLHQDWLNGKEYKCKVSNKGLPSSIEKTISKAKGQPREPQVYTLPPSQEEMTKNQVSLTCLVKGFYPSDIAVEWESNGQPENNYKTTPPVLDSDGSFFLYSRLTVDKSRWQEGNVFSCSVMHEALHNHYTQKSLSLSLG
light: DIQMTQSPSSLSASVGDRVTITCGASENIYGALNWYQQKPGKAPKLLIYGATNLADGVPSRFSGSGSGTDFTLTISSLQPEDFATYYCQNVLNTPLTFGQGTKVEIKRTVAAPSVFIFPPSDEQLKSGTASVVCLLNNFYPREAKVQWKVDNALQSGNSQESVTEQDSKDSTYSLSSTLTLSKADYEKHKVYACEVTHQGLSSPVTKSFNRGEC
notes: antibody against the complement component C5, used as a therapeutic agent for atypical hemolytic uremic syndrome
amount of MAC deposition [1]: decreases in a dose-dependent manner
amount of MAC deposition [2]: decreases in a dose-dependent manner
